The results in this text go back to patent US11236082B2, “EZH2 inhibitors and uses thereof” (Dana-Farber Cancer Institute, Inc., priority 2014, dated 2022).

The test addresses T1, NSD2 (Homo sapiens, UniProt O96028).
T1 sequence (O96028 1-1365): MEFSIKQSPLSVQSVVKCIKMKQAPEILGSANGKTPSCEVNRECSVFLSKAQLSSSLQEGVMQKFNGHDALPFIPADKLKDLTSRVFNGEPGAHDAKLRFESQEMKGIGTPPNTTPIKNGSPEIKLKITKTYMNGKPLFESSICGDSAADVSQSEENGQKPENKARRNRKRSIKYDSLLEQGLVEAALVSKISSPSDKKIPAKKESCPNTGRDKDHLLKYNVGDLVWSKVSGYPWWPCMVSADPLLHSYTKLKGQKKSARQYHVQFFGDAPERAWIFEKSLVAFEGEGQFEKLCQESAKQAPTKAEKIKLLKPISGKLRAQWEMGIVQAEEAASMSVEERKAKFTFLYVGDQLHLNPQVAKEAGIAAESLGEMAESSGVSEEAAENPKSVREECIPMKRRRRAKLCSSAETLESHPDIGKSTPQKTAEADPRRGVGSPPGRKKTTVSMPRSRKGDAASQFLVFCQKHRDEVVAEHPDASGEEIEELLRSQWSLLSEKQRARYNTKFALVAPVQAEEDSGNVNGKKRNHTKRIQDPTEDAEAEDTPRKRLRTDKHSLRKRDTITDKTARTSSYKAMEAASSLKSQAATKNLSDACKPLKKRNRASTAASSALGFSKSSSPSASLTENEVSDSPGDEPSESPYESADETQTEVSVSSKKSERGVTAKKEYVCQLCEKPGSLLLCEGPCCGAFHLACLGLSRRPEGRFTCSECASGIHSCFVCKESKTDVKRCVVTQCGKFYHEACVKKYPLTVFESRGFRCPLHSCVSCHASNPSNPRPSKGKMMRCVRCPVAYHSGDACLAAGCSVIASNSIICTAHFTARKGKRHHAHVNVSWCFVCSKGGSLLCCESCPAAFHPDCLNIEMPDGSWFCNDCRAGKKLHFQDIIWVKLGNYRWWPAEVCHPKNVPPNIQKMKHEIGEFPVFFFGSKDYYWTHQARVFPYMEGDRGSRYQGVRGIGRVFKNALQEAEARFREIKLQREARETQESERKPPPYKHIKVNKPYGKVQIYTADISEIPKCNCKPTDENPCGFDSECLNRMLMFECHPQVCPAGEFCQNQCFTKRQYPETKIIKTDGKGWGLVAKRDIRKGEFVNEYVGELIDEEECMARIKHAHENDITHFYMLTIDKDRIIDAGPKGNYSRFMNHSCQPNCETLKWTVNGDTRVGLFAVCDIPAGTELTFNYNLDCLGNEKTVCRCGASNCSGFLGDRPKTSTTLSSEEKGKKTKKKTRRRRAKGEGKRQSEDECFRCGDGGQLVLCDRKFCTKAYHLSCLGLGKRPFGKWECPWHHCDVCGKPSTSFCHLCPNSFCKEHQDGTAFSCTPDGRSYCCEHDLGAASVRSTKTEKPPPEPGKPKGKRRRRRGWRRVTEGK
Briefly: HMT panel profiling. The test is classed as biochemical.

`Nc1ncnc2c1ncn2[C@@H]1O[C@H](CSCC[C@H](N)C(=O)O)[C@@H](O)[C@H]1O` [SAH, S-adenosyl-homocysteine] returned an IC50 of 7.49 µM.

Broadly, the IC50 is the concentration that gives 50% inhibition.
